{
  "sequences": {"note": "Protein sequences, listed by entry. Tags and fused reporters are not part of them. Residues count along the entry.", "UniProt P23219, 24-599": "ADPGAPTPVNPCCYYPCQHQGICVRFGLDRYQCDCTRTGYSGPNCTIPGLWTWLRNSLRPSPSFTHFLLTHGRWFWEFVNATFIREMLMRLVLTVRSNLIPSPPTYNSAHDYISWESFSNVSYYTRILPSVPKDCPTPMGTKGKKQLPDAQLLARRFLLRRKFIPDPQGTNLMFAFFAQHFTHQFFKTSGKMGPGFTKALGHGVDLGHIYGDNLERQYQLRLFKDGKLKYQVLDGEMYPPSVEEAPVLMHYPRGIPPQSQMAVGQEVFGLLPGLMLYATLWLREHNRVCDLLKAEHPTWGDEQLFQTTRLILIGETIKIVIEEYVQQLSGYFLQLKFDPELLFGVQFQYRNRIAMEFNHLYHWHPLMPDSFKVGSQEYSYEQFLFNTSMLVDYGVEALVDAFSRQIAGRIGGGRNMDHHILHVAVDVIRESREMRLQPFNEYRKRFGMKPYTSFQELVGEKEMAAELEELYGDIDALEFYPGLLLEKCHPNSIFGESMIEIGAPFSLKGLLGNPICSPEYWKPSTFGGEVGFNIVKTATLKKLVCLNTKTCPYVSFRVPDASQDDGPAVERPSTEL"},
  "source": "patent EP1148783B1",
  "about": "“CONVERTING COX INHIBITION COMPOUNDS THAT ARE NOT COX-2 SELECTIVE INHIBITORS TO DERIVATIVES THAT ARE COX-2 SELECTIVE INHIBITORS” (priority 1999, dated 2000)",
  "origin": "cited, not measured here",
  "biological_target": "COX-1 (Homo sapiens, UniProt P23219)",
  "conditions": "background statement; cited from earlier work",
  "data": [
    {"compound": "CSc1ccc(/C=C2/C(C)=C(CC(=O)O)c3cc(F)ccc32)cc1", "note": "[sulindac sulfide]", "values": [
      {"measurement": "fold more potent inhibitor against COX-1 than against COX-2", "value": 40, "unit": "fold"}
    ]}
  ]
}
